Results as given in patent US20190367631A1 (Regeneron, published 2019).

Target: T1, mouse MSR1 on RAW264.7 cells (mouse, UniProt P30204 1-458)
T1 construct: whole, on cells; also called MSR1 positive RAW264.7 cells
T1 sequence (looked up): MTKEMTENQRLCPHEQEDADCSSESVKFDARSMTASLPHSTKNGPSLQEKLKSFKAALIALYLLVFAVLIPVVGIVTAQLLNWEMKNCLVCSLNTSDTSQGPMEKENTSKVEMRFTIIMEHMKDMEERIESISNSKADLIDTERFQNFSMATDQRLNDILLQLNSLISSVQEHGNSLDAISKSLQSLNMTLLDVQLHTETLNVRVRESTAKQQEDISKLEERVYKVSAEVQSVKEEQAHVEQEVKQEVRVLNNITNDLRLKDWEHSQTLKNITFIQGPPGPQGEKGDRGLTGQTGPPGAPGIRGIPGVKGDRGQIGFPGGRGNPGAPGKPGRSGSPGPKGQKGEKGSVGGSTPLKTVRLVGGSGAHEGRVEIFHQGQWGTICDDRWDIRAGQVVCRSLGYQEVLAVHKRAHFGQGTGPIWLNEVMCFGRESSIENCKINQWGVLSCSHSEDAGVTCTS
Assay: flow cytometry, RAW264.7 cells

MFI: 4060 MFI
B1: H1H27771P2-N297Q (antibody, human IgG1, V domains shown)
VH: EVQLVESGGGLVQPGGSLRLSCAASGFTFSSYGMNWVRQAPGKGLEWVSVISGSGGSTYYADSVKGRFTISRDNSKNTLYLQMNSLRAEDTAVYYCAKDRWTYYYDSSGSPFDYWGQGTLVTVSS
VL: not shown
notes: human IgG1 Fc with N297Q; also called H1H27771P-N297Q
